Results on 1 compound are retold here after ChEMBL document CHEMBL1145598, “Discovery and preclinical studies of 5-isopropyl-6-(5-methyl-1,3,4-oxadiazol-2-yl)-N-(2-methyl-1H-pyrrolo[2,3-b]pyridin-5-yl)pyrrolo[2,1-f][1,2,4]triazin-4-amine (BMS-645737), an in vivo active potent VEGFR-2 inhibitor” (Bioorg Med Chem Lett, 2008).

This data set is filed under the species Homo sapiens. The experiment in a line: Protein binding in human plasma. Conditions: read-out: PPB (converted).

On to `Cc1cc2cc(Nc3ncnn4cc(-c5nnc(C)o5)c(C(C)C)c34)cnc2[nH]1`, for which the fraction unbound is 0.028.
